US20230233305A1, “METHOD OF AMELIORATING OR TREATING INFLAMMATORY IN AN ORAL CAVITY” (priority 2022, published 2023)

Details: 0th to 6th weeks; cats; 200 ng/kg oral

Substance: vitamin D [fat-soluble vitamin D]
- amount of vitamin D (25-(OH)-D3) in the serum: the highest
